Consider 1 compound from PMC6750840 (Journal of Medicinal Chemistry, 2019).

By UniProt entry, the sequences of proteins in these tests, tags left out. Where a name states a change or a piece, a line headed by the entry shows the natural chain unless it says otherwise.
UniProt P35367, whole entry: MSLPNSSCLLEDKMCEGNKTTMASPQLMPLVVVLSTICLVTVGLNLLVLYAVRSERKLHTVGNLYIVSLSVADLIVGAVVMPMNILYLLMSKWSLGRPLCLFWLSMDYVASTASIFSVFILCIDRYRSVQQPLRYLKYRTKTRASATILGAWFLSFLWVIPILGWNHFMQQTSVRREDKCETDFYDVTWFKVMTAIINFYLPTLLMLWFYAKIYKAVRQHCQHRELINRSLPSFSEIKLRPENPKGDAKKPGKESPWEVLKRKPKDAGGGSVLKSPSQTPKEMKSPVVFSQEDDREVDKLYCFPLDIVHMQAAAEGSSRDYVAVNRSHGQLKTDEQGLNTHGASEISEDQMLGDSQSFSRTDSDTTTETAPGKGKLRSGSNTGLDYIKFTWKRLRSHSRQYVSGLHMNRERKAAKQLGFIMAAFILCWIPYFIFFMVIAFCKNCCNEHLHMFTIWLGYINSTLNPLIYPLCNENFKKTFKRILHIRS

The target in the assay is human H1R (Homo sapiens, UniProt P35367). In kind it is binding. The conditions noted are these: benzene of 12 substituted for cyclohexane.

Regarding `Clc1ccc2c(c1)CCc1cccnc1C2=C1CCN(CC2CCCCC2)CC1` [Compound 13, 8-Chloro-11-(1-(cyclohexylmethyl)piperidin-4-ylidene)-6,11-dihydro-5H-benzo[5,6]cyclohepta[1,2-b]pyridine], the “fold change in binding affinity relative to 12” value was < 2 fold.
